Test results reported in patent US20140100156A1 (SANOFI, priority 2012, published 2014).
Like-named read-outs stand apart in the source and are kept apart here.

Amino acid sequences for entries named in this document (tags omitted). Residues count along the entry.
UniProt P47871, 26-477: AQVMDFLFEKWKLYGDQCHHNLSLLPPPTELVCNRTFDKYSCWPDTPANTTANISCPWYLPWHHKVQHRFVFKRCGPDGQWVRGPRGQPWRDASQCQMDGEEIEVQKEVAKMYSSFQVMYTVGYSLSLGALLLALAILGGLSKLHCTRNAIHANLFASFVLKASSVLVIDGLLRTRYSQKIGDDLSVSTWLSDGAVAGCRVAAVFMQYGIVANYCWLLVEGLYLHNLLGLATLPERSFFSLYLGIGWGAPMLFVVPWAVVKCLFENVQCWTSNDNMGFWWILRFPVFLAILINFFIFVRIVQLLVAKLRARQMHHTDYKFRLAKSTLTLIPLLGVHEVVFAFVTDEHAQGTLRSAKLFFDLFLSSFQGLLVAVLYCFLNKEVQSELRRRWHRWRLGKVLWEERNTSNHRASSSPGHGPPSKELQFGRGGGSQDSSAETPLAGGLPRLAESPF
UniProt P43220, 24-463: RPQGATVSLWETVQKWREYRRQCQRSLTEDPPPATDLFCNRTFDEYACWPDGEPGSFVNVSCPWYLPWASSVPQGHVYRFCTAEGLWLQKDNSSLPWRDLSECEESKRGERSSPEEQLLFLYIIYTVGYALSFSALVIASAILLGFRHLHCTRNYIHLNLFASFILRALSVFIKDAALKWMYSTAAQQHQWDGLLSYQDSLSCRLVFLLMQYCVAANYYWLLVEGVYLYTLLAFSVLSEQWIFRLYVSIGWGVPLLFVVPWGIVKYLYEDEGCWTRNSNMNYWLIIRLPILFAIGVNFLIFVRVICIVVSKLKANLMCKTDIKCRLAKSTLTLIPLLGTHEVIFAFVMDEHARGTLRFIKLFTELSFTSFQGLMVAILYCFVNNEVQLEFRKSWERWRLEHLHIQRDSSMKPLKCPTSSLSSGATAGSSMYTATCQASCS

Experiments:
human glucagon receptor = target: T1, human glucagon receptor (Homo sapiens, UniProt P47871); test: cAMP response (HTRF) of HEK-293 cells stably expressing human glucagon receptor; type: cell-based; conditions: read-out: EC50 hGlucagon-R
T1 construct: expressed in transfected cells; host or cells: HEK-293

human GLP-1 receptor = target: T2, human GLP-1 receptor (Homo sapiens, UniProt P43220); test: cAMP response (HTRF) of HEK-293 cells stably expressing human GLP-1 receptor; type: cell-based; conditions: Table 5; cAMP, HEK-293; read-out: EC50 hGLP-1R
T2 construct: expressed in transfected cells; host or cells: HEK-293

Compound	EC50 (human glucagon receptor; Table 5, cAMP, HEK-293)	EC50 (human GLP-1 receptor)	EC50 (human glucagon receptor; Table 8, comparison testing of position 14)
CCCCCCCCCCCCCCCC(=O)N[C@@H](CCC(=O)NCCCC[C@H](NC(=O)[C@H](CCC(N)=O)NC(=O)[C@H](CCCCN)NC(=O)[C@H](CO)NC(=O)[C@H](CC(C)C)NC(=O)[C@H](CC(=O)O)NC(=O)[C@H](CO)NC(=O)[C@@H](NC(=O)[C@H](Cc1ccccc1)NC(=O)[C@@H](NC(=O)CNC(=O)[C@H](CCC(N)=O)NC(=O)[C@@H](CO)NC(=O)[C@@H](N)Cc1c[nH]cn1)[C@@H](C)O)[C@@H](C)O)C(=O)N[C@@H](CCC(=O)O)C(=O)N[C@@H](CO)C(=O)N[C@@H](CCC(=O)O)C(=O)N[C@@H](C)C(=O)N[C@@H](C)C(=O)N[C@@H](CCC(N)=O)C(=O)N[C@@H](CC(C)C)C(=O)N[C@@H](Cc1ccccc1)C(=O)N[C@H](C(=O)N[C@@H](CCC(=O)O)C(=O)N[C@@H](Cc1c[nH]c2ccccc12)C(=O)N[C@@H](CC(C)C)C(=O)N[C@@H](CCCCN)C(=O)N[C@@H](C)C(=O)NCC(=O)NCC(=O)N1CCC[C@H]1C(=O)N[C@@H](CO)C(=O)N[C@@H](CO)C(=O)NCC(=O)N[C@@H](C)C(=O)N1CCC[C@H]1C(=O)N1CCC[C@H]1C(=O)N1CCC[C@H]1C(=O)N[C@@H](CO)C(N)=O)[C@@H](C)CC)C(=O)O [compound 21]	144 pM	3.8 pM	
CCCCCCCCCCCCCCCC(=O)N[C@@H](CCC(=O)NCCCC[C@H](NC(=O)[C@H](CCC(N)=O)NC(=O)[C@H](CCCCN)NC(=O)[C@H](CO)NC(=O)[C@H](CC(C)C)NC(=O)[C@H](CC(=O)O)NC(=O)[C@H](CO)NC(=O)[C@@H](NC(=O)[C@H](Cc1ccccc1)NC(=O)[C@@H](NC(=O)CNC(=O)[C@H](CCC(N)=O)NC(=O)[C@@H](CO)NC(=O)[C@@H](N)Cc1c[nH]cn1)[C@@H](C)O)[C@@H](C)O)C(=O)N[C@@H](CC(=O)O)C(=O)N[C@@H](CCC(=O)O)C(=O)N[C@@H](CCCCN)C(=O)N[C@@H](C)C(=O)N[C@@H](C)C(=O)N[C@@H](CCC(N)=O)C(=O)N[C@@H](CC(=O)O)C(=O)N[C@@H](Cc1ccccc1)C(=O)N[C@H](C(=O)N[C@@H](CCC(=O)O)C(=O)N[C@@H](Cc1c[nH]c2ccccc12)C(=O)N[C@@H](CC(C)C)C(=O)N[C@@H](CCCCN)C(=O)N[C@@H](C)C(=O)NCC(=O)NCC(=O)N1CCC[C@H]1C(=O)N[C@@H](CO)C(=O)N[C@@H](CO)C(=O)NCC(=O)N[C@@H](C)C(=O)N1CCC[C@H]1C(=O)N1CCC[C@H]1C(=O)N1CCC[C@H]1C(=O)N[C@@H](CO)C(N)=O)[C@@H](C)CC)C(=O)O [compound 22]	2.4 pM	1.1 pM	
CCCCCCCCCCCCCCCC(=O)N[C@@H](CCC(=O)NCCCC[C@H](NC(=O)[C@H](CCC(N)=O)NC(=O)[C@H](CCCCN)NC(=O)[C@H](CO)NC(=O)[C@H](CC(C)C)NC(=O)[C@H](CC(=O)O)NC(=O)[C@H](CO)NC(=O)[C@@H](NC(=O)[C@H](Cc1ccccc1)NC(=O)[C@@H](NC(=O)CNC(=O)[C@H](CCC(N)=O)NC(=O)[C@@H](CO)NC(=O)[C@@H](N)Cc1c[nH]cn1)[C@@H](C)O)[C@@H](C)O)C(=O)N[C@@H](CCC(=O)O)C(=O)N[C@@H](CCC(=O)O)C(=O)N[C@@H](CCCCN)C(=O)N[C@@H](CCCCN)C(=O)N[C@@H](C)C(=O)N[C@@H](CCCCN)C(=O)N[C@@H](CC(C)C)C(=O)N[C@@H](Cc1ccccc1)C(=O)N[C@H](C(=O)N[C@@H](CCC(=O)O)C(=O)N[C@@H](Cc1c[nH]c2ccccc12)C(=O)N[C@@H](CC(C)C)C(=O)N[C@@H](CCCCN)C(=O)N[C@@H](C)C(=O)NCC(=O)NCC(=O)N1CCC[C@H]1C(=O)N[C@@H](CO)C(=O)N[C@@H](CO)C(=O)NCC(=O)N[C@@H](C)C(=O)N1CCC[C@H]1C(=O)N1CCC[C@H]1C(=O)N1CCC[C@H]1C(=O)N[C@@H](CO)C(N)=O)[C@@H](C)CC)C(=O)O [compound 23]	126 pM	5.6 pM	
CCCCCCCCCCCCCCCCCC(=O)N[C@@H](CCC(=O)NCCCC[C@H](NC(=O)[C@H](CCC(N)=O)NC(=O)[C@H](CCCCN)NC(=O)[C@H](CO)NC(=O)[C@H](CC(C)C)NC(=O)[C@H](CC(=O)O)NC(=O)[C@H](CO)NC(=O)[C@@H](NC(=O)[C@H](Cc1ccccc1)NC(=O)[C@@H](NC(=O)CNC(=O)[C@H](CCC(N)=O)NC(=O)[C@@H](CO)NC(=O)[C@@H](N)Cc1c[nH]cn1)[C@@H](C)O)[C@@H](C)O)C(=O)N[C@@H](CCC(=O)O)C(=O)N[C@@H](CO)C(=O)N[C@@H](CCCCN)C(=O)N[C@@H](C)C(=O)N[C@@H](C)C(=O)N[C@@H](CCC(N)=O)C(=O)N[C@@H](CC(=O)O)C(=O)N[C@@H](Cc1ccccc1)C(=O)N[C@H](C(=O)N[C@@H](CCC(=O)O)C(=O)N[C@@H](Cc1c[nH]c2ccccc12)C(=O)N[C@@H](CC(C)C)C(=O)N[C@@H](CCCCN)C(=O)N[C@@H](C)C(=O)NCC(=O)NCC(=O)N1CCC[C@H]1C(=O)N[C@@H](CO)C(=O)N[C@@H](CO)C(=O)NCC(=O)N[C@@H](C)C(=O)N1CCC[C@H]1C(=O)N1CCC[C@H]1C(=O)N1CCC[C@H]1C(=O)N[C@@H](CO)C(N)=O)[C@@H](C)CC)C(=O)O [compound 26]	5.4 pM	5.1 pM	
CCCCCCCCCCCCCCCC(=O)N[C@@H](CCC(=O)NCCCC[C@H](NC(=O)[C@H](CCC(N)=O)NC(=O)[C@H](CCCCN)NC(=O)[C@H](CO)NC(=O)[C@H](CC(C)C)NC(=O)[C@H](CC(=O)O)NC(=O)[C@H](CO)NC(=O)[C@@H](NC(=O)[C@H](Cc1ccccc1)NC(=O)[C@@H](NC(=O)CNC(=O)[C@H](CCC(N)=O)NC(=O)[C@@H](CO)NC(=O)[C@@H](N)Cc1c[nH]cn1)[C@@H](C)O)[C@@H](C)O)C(=O)N[C@@H](CCC(=O)O)C(=O)N[C@@H](CO)C(=O)N[C@@H](CCCCN)C(=O)N[C@@H](C)C(=O)N[C@@H](C)C(=O)N[C@@H](CCC(N)=O)C(=O)N[C@@H](CCC(=O)O)C(=O)N[C@@H](Cc1ccccc1)C(=O)N[C@H](C(=O)N[C@@H](CCC(=O)O)C(=O)N[C@@H](Cc1c[nH]c2ccccc12)C(=O)N[C@@H](CC(C)C)C(=O)N[C@@H](CCCCN)C(=O)N[C@@H](C)C(=O)NCC(=O)NCC(=O)N1CCC[C@H]1C(=O)N[C@@H](CO)C(=O)N[C@@H](CO)C(=O)NCC(=O)N[C@@H](C)C(=O)N1CCC[C@H]1C(=O)N1CCC[C@H]1C(=O)N1CCC[C@H]1C(=O)N[C@@H](CO)C(N)=O)[C@@H](C)CC)C(=O)O [compound 28]	12.6 pM	5.5 pM	
CCCCCCCCCCCCCCCC(=O)N[C@@H](CCC(=O)NCCCC[C@H](NC(=O)[C@H](CCC(N)=O)NC(=O)[C@H](CCCCN)NC(=O)[C@H](CO)NC(=O)[C@H](CC(C)C)NC(=O)[C@H](CC(=O)O)NC(=O)[C@H](CO)NC(=O)[C@@H](NC(=O)[C@H](Cc1ccccc1)NC(=O)[C@@H](NC(=O)CNC(=O)[C@H](CCC(N)=O)NC(=O)[C@@H](CO)NC(=O)[C@@H](N)Cc1c[nH]cn1)[C@@H](C)O)[C@@H](C)O)C(=O)N[C@@H](CCC(=O)O)C(=O)N[C@@H](CO)C(=O)N[C@@H](CCCCN)C(=O)N[C@@H](C)C(=O)N[C@@H](C)C(=O)N[C@@H](CCC(N)=O)C(=O)N[C@@H](CC(C)C)C(=O)N[C@@H](Cc1ccccc1)C(=O)N[C@H](C(=O)N[C@@H](CCC(=O)O)C(=O)N[C@@H](Cc1c[nH]c2ccccc12)C(=O)N[C@@H](CC(C)C)C(=O)N[C@@H](CCCCN)C(=O)N[C@@H](C)C(=O)NCC(=O)NCC(=O)N1CCC[C@H]1C(=O)N[C@@H](CO)C(=O)N[C@@H](CO)C(=O)NCC(=O)N[C@@H](C)C(=O)N1CCC[C@H]1C(=O)N1CCC[C@H]1C(=O)N1CCC[C@H]1C(=O)N[C@@H](CO)C(N)=O)[C@@H](C)CC)C(=O)O [compound 29]	87.9 pM	5.9 pM	
CCCCCCCCCCCCCCCC(=O)N[C@@H](CCC(=O)NCCCC[C@H](NC(=O)[C@H](CCC(N)=O)NC(=O)[C@H](CCCCN)NC(=O)[C@H](CO)NC(=O)[C@H](CC(C)C)NC(=O)[C@H](CC(=O)O)NC(=O)[C@H](CO)NC(=O)[C@@H](NC(=O)[C@H](Cc1ccccc1)NC(=O)[C@@H](NC(=O)CNC(=O)[C@H](CCC(N)=O)NC(=O)[C@@H](CO)NC(=O)[C@@H](N)Cc1c[nH]cn1)[C@@H](C)O)[C@@H](C)O)C(=O)N[C@@H](CC(=O)O)C(=O)N[C@@H](CO)C(=O)N[C@@H](CCCCN)C(=O)N[C@@H](C)C(=O)N[C@@H](C)C(=O)N[C@@H](CCC(N)=O)C(=O)N[C@@H](CC(=O)O)C(=O)N[C@@H](Cc1ccccc1)C(=O)N[C@H](C(=O)N[C@@H](CCC(=O)O)C(=O)N[C@@H](Cc1c[nH]c2ccccc12)C(=O)N[C@@H](CC(C)C)C(=O)N[C@@H](CCCCN)C(=O)N[C@@H](C)C(=O)NCC(=O)NCC(=O)N1CCC[C@H]1C(=O)N[C@@H](CO)C(=O)N[C@@H](CO)C(=O)NCC(=O)N[C@@H](C)C(=O)N1CCC[C@H]1C(=O)N1CCC[C@H]1C(=O)N1CCC[C@H]1C(=O)N[C@@H](CO)C(N)=O)[C@@H](C)CC)C(=O)O [compound 30]	7 pM	3.2 pM	7 pM
CCCCCCCCCCCCCCCC(=O)N[C@@H](CCC(=O)NCCCC[C@H](NC(=O)[C@H](CCC(N)=O)NC(=O)[C@H](CCCCN)NC(=O)[C@H](CO)NC(=O)[C@H](CC(C)C)NC(=O)[C@H](CC(=O)O)NC(=O)[C@H](CO)NC(=O)[C@@H](NC(=O)[C@H](Cc1ccccc1)NC(=O)[C@@H](NC(=O)CNC(=O)[C@H](CCC(N)=O)NC(=O)C(C)(C)NC(=O)[C@@H](N)Cc1c[nH]cn1)[C@@H](C)O)[C@@H](C)O)C(=O)N[C@@H](CC(=O)O)C(=O)N[C@@H](CO)C(=O)N[C@@H](CCCCN)C(=O)N[C@@H](C)C(=O)N[C@@H](C)C(=O)N[C@@H](CCC(N)=O)C(=O)N[C@@H](CC(=O)O)C(=O)N[C@@H](Cc1ccccc1)C(=O)N[C@H](C(=O)N[C@@H](CCC(=O)O)C(=O)N[C@@H](Cc1c[nH]c2ccccc12)C(=O)N[C@@H](CC(C)C)C(=O)N[C@@H](CCCCN)C(=O)N[C@@H](C)C(=O)NCC(=O)NCC(=O)N1CCC[C@H]1C(=O)N[C@@H](CO)C(=O)N[C@@H](CO)C(=O)NCC(=O)N[C@@H](C)C(=O)N1CCC[C@H]1C(=O)N1CCC[C@H]1C(=O)N1CCC[C@H]1C(=O)N[C@@H](CO)C(N)=O)[C@@H](C)CC)C(=O)O [compound 31]	9.3 pM	1.7 pM	
